Data on 1 compound can be found in PubChem BioAssay AID434994 (NMMLSC, 2010).

This test can be described thus: superoxide lowering in aged yeast cells, confirmation, cherry picked compounds (AID 434994).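 Note: cells aged with compound for 7 days at 30 degrees C before staining; 100% equals mean DHE fluorescence of all compound wells on the plate.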 To be noted: S. cerevisiae aging, superoxide DHE fluorescence; at 10 µM; active compounds read low.

Only a part is listed here, and it is no random draw. Calls of active or inactive are those of the source.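 Rule for the calls: active = superoxide signal below 65% of the plate average of sample wells; inactive = the rest.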

In the case of `O=C(OC1CN2CCC1CC2)c1ccccc1` (stereo unspecified), the superoxide response (% of plate) is inactive: 98.5%.
